The values that follow are results of earlier work, collected in patent US20070231260A1, “Transporter-targeted methods of diagnosis and treatment” (priority 2005, published 2007).

This data set relates to cell lines over-expressing GLUT2. The following applies: vs cells not over-expressing GLUT2; Elsner et al. 2000; cited from earlier work.

On to streptozotocin, for which the “fold greater sensitivity (cytotoxicity) of GLUT2 over-expressing cell lines” value was roughly 1000 fold.
